Columns and labels:
Details in all cases: dose 500.0 nM
[1] = target: T1, Cyclin-dependent kinase 5/CDK5 activator 1 (Homo sapiens) (UniProt Q00535+Q15078)
[2] = target: T1, Cyclin-dependent kinase 5/CDK5 activator 1 (Homo sapiens); remark: listed apart in the source
[3] = target: CDK18/Cyclin Y (Homo sapiens) (UniProt Q07002+Q8ND76)
[4] = target: CDK3/Cyclin E (Homo sapiens) (UniProt P24864+Q00526)
[5] = target: CDK6/cyclin D3 (Homo sapiens) (UniProt P30281+Q00534)
[6] = target: CDK4/Cyclin D3 (Homo sapiens) (UniProt P11802+P30281)
[7] = target: CDK7/Cyclin H/MNAT1 (Homo sapiens) (UniProt P51946+P50613+P51948)
[8] = target: CDK6/cyclin D1 (Homo sapiens) (UniProt P24385+Q00534)
[9] = target: Cyclin-dependent kinase 13/Cyclin-K (Homo sapiens) (UniProt Q14004+O75909)
[10] = target: CDK2/Cyclin A2 (Homo sapiens) (UniProt P24941+P20248)
[11] = target: Cyclin-Y/Cyclin-dependent kinase 16 (Homo sapiens) (UniProt Q00536+Q8ND76)
[12] = target: CDK12/Cyclin K (Homo sapiens) (UniProt O75909+Q9NYV4)
[13] = target: CDK1/Cyclin A (Homo sapiens) (UniProt P06493+P20248)

Amino acid sequences for entries named in this document (tags omitted). A change or cut given only in a name is not applied to a line headed by its entry.
UniProt Q15078: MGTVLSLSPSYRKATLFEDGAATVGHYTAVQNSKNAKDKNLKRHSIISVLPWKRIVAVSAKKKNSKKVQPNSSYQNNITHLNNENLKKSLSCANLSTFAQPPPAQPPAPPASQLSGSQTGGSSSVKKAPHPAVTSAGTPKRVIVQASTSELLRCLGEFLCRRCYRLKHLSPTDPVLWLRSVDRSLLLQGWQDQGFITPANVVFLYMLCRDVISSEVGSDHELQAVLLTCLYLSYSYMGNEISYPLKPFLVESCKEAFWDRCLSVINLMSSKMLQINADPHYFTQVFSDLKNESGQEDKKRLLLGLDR
UniProt Q07002: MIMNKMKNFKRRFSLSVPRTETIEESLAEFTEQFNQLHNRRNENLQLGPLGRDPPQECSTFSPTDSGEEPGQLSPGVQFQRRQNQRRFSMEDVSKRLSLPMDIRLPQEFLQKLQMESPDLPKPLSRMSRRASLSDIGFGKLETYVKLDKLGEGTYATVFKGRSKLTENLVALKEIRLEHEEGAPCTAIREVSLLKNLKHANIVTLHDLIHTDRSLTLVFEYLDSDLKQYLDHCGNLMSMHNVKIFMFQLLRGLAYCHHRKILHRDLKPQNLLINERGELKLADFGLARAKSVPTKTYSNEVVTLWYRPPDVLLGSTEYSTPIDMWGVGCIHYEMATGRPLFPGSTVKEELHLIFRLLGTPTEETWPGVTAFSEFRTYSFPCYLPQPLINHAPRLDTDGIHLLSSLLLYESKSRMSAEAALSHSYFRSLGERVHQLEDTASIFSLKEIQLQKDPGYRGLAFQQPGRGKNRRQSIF
UniProt P24864, whole entry, looked up: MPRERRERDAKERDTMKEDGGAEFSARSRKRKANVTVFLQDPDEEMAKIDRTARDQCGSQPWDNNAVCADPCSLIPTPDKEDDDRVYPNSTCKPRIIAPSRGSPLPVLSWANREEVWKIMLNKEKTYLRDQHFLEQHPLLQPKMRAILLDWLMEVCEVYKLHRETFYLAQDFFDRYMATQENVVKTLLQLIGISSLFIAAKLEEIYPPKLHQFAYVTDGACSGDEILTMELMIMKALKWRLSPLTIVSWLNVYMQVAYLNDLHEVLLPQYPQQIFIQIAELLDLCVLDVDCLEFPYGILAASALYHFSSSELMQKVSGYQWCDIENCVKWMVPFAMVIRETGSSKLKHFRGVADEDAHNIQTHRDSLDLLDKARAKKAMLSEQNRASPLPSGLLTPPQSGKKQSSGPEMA
UniProt Q00526: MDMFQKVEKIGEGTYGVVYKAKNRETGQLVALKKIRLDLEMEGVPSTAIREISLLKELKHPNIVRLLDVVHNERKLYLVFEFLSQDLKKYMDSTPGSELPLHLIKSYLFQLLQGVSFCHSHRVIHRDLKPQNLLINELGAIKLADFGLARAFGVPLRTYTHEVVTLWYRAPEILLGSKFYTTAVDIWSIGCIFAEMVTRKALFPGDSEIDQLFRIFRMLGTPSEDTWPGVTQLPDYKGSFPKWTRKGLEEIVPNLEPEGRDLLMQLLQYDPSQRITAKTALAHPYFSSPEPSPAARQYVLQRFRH
UniProt Q00534: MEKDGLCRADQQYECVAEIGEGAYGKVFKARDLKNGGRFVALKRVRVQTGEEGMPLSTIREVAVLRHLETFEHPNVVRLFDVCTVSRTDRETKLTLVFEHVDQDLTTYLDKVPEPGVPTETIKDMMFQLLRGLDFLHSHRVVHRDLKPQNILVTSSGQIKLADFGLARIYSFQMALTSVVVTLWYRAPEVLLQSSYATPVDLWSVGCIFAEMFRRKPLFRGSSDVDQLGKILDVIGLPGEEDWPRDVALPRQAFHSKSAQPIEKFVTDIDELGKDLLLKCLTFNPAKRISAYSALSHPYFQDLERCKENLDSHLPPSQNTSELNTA
UniProt P11802: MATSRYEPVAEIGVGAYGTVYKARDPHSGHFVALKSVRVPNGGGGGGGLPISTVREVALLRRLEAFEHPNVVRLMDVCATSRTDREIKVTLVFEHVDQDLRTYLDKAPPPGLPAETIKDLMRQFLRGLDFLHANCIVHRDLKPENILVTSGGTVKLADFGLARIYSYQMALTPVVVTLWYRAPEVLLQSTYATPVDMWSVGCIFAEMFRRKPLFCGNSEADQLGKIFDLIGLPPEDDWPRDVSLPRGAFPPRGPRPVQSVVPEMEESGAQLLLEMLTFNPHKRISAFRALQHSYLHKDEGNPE
UniProt P50613: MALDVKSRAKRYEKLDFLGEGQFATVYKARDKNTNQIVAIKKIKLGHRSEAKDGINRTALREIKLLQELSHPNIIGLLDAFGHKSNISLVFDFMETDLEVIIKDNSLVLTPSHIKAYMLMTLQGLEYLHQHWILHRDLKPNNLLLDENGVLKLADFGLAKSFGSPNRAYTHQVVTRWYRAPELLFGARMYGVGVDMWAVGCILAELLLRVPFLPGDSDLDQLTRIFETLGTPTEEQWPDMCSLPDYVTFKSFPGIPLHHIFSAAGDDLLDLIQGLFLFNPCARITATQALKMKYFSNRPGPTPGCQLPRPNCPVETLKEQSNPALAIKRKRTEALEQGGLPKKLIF
UniProt P24385: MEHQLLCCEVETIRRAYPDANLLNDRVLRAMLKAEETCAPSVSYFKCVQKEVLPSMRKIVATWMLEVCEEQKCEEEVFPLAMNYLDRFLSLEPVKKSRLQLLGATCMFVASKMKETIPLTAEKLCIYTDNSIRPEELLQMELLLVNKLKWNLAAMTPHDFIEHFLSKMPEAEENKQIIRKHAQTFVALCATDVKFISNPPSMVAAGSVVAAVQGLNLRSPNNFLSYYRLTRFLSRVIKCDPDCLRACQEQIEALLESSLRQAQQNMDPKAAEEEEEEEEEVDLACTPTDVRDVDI
UniProt Q14004, whole entry, looked up: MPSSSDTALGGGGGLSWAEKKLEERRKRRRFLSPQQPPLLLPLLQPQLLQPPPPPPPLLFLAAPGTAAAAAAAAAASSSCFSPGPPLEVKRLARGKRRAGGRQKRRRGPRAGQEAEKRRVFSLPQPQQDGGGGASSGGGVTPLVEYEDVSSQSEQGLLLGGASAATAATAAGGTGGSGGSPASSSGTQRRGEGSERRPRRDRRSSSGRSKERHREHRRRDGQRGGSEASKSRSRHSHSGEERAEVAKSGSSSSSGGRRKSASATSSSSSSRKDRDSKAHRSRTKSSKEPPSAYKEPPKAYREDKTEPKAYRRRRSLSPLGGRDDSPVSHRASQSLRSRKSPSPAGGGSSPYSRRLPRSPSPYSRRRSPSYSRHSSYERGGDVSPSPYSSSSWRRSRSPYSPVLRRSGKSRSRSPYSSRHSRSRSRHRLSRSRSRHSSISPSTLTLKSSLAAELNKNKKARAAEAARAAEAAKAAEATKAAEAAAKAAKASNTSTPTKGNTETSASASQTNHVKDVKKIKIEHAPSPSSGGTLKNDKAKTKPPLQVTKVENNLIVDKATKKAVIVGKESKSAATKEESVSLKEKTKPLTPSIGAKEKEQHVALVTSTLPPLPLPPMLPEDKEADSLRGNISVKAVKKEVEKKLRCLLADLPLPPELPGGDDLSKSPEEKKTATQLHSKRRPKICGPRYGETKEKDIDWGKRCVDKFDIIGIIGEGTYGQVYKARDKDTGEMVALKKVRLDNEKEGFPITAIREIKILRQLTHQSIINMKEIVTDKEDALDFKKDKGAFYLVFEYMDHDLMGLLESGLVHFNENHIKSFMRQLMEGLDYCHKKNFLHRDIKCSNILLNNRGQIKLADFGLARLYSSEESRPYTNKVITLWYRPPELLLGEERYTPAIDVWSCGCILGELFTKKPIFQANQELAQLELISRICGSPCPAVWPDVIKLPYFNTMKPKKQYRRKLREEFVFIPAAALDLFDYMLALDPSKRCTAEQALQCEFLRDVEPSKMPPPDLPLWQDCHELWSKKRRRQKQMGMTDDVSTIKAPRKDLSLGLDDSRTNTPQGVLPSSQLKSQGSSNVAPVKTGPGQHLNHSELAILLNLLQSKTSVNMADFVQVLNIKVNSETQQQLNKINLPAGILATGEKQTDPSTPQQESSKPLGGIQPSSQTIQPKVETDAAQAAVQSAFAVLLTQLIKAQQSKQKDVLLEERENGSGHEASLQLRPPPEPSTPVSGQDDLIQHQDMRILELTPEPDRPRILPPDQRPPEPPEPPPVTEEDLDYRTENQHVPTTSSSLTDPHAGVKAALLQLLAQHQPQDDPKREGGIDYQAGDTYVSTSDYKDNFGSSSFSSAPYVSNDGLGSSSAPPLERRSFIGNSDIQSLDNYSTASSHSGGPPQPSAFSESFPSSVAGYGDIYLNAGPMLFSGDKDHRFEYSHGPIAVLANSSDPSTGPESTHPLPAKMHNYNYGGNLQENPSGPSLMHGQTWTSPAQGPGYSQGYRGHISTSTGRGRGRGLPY
UniProt P20248, whole entry, looked up: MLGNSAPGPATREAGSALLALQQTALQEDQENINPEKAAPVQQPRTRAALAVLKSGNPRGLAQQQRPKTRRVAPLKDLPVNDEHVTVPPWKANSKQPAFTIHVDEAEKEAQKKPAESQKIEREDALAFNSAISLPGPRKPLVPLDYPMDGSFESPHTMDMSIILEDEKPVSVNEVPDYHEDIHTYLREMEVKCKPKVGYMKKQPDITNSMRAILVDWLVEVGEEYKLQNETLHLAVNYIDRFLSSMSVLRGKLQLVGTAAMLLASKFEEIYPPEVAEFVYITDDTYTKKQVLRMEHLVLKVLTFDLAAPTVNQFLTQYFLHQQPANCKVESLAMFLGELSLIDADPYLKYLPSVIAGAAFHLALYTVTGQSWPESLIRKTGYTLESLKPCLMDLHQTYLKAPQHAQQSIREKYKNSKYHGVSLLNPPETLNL
UniProt Q9NYV4, whole entry, looked up: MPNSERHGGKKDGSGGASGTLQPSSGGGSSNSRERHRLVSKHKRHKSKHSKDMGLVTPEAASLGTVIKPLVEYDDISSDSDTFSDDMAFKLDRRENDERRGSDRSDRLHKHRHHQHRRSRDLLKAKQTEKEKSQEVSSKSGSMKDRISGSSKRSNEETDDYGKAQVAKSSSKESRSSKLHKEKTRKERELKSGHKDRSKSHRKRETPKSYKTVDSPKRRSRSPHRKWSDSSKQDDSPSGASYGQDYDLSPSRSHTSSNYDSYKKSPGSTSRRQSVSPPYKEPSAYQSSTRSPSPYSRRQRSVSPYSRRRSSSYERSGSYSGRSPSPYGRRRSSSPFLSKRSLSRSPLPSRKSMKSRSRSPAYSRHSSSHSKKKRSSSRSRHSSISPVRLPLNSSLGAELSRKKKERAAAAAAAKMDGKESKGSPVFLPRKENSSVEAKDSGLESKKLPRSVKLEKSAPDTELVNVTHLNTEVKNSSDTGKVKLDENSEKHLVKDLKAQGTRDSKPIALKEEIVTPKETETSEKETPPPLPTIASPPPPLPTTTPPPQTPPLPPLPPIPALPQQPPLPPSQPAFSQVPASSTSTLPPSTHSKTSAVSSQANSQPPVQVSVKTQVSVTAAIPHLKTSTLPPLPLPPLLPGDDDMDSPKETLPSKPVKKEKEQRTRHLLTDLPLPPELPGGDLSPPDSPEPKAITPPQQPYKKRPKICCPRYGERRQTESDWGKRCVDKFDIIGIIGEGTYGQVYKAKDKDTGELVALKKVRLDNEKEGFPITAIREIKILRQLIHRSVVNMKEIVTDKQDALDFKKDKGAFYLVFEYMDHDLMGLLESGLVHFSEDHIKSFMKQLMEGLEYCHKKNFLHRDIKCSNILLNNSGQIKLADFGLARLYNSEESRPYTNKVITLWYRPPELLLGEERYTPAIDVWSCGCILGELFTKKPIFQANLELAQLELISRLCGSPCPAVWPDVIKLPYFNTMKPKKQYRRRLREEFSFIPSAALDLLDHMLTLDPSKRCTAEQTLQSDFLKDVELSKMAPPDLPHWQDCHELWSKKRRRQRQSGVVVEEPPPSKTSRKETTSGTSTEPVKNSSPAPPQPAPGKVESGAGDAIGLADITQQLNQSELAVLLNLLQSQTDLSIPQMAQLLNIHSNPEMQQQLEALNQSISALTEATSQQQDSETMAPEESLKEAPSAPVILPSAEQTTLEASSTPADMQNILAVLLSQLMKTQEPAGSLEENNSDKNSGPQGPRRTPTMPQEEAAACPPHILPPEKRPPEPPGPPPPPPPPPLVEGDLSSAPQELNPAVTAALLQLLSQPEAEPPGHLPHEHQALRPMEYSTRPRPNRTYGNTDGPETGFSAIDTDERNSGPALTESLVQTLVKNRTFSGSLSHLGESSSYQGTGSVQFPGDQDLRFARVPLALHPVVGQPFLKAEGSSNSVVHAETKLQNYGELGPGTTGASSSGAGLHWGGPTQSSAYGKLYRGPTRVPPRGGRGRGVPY
UniProt P06493, whole entry, looked up: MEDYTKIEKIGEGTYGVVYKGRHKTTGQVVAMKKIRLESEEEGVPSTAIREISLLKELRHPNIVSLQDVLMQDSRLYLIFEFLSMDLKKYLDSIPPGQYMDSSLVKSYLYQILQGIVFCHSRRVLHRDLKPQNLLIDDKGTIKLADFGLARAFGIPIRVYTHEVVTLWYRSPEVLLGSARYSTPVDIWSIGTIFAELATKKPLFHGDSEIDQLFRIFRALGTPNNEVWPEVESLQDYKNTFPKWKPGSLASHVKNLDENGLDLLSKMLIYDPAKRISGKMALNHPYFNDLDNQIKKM

inhibition [1]: 22% | inhibition [2]: 5.66% | inhibition [3]: 3.01% | inhibition [4]: 9.38% | inhibition [5]: 79.9% | inhibition [6]: 45.6% | inhibition [7]: 7.58% | inhibition [8]: 68.4% | inhibition [9]: 18.2% | inhibition [10]: 7.13% | inhibition [11]: 7.37% | inhibition [12]: 3.69% | inhibition [13]: 11.3%
SMILES: COc1cc(OC)c2c(=O)[nH]c(-c3ccc(C(=O)N4CC5(CCN(c6ncc7c(C)cc(=O)n(C8CCCC8)c7n6)CC5)C4)cc3)nc2c1

Source: ChEMBL document CHEMBL6083283, “Discovery of Dual CDK6/BRD4 Inhibitor Inducing Apoptosis and Increasing the Sensitivity of Ferroptosis in Triple-Negative Breast Cancer” (J Med Chem, 2024)
